The values that follow come from patent US20190150137A1.

The target in this assay is GST-Fg γ^1-17 (GST fusion protein containing the native human Fg γ 395-411 sequence) (human). In words: solid-phase assay, immobilised GST fusion, anti-His detection.

B1: ClfA229-545 (recombinant His-tagged N2N3 segment of Staphylococcus aureus clumping factor A) (protein)
chain: GTDITNQLTNVTVGIDSGTTVYPHQAGYVKLNYGFSVPNSAVKGDTFKITVPKELNLNGVTSTAKVPPIMAGDQVLANGVIDSDGNVIYTFTDYVNTKDDVKATLTMPAYIDPENVKKTGNVTLATGIGSTTANKTVLVDYEKYGKFYNLSIKGTIDQIDKTNNTYRQTIYVNPSGDNVIAPVLTGNLKPNTDSNALIDQQNTSIKVYKVDNAADLSESYFVNPENFEDVTNSVNITFPNPNQYKVEFNTPDDQITTPYIVVVNGHIDPNSKGDLALRSTLYGYNSNIIWRSMSWDNEVAFNNGSGSGDGIDKPVVP
In the case of B1, the equilibrium dissociation constant (Kd) (as a rule, the free concentration of one partner at which half of the binding sites on the other are occupied at equilibrium, for simple one-to-one binding) turned out to be 657 nM.
